Results taken from ChEMBL document CHEMBL4406803, “A- and D-Ring Structural Modifications of an Androsterone Derivative Inhibiting 17β-Hydroxysteroid Dehydrogenase Type 3: Chemical Synthesis and Structure-Activity Relationships” (J Med Chem, 2019).

Target: T1, 17-beta-hydroxysteroid dehydrogenase type 3 (Homo sapiens) (UniProt P37058)
T1 sequence (whole entry): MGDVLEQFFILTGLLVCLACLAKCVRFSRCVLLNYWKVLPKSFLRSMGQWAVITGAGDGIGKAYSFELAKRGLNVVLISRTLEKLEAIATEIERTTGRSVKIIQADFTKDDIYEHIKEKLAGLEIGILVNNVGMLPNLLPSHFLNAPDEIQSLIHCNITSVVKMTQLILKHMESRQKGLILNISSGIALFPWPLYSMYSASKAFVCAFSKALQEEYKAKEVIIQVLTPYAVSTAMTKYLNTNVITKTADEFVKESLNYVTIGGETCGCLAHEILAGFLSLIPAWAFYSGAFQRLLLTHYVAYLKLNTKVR
Assay: Potency index, ratio of RM-532-105 IC50 to test compound IC50 for 17beta-HSD3 (unknown origin) expressed in human LNCAP cells
Assay type: cell-based

SMILES | Ratio IC50
CC1CN(S(=O)(=O)c2ccccc2C(F)(F)F)C(C)CN1CC(O)c1ccc2c(c1)CC[C@@H]1[C@@H]2CC[C@]2(C)C(=O)CC[C@@H]12 (single isomer, unassigned; diastereomer B) | 4.5
CC1CN(S(=O)(=O)c2ccccc2C(F)(F)F)C(C)CN1C(=O)c1ccc2c(c1)CC[C@@H]1[C@@H]2CC[C@]2(C)C(=O)CC[C@@H]12 (stereo not given in full) | 0.9
CC1CN(S(=O)(=O)c2ccccc2C(F)(F)F)C(C)CN1CCc1ccc2c(c1)CC[C@@H]1[C@@H]2CC[C@]2(C)C(=O)CC[C@@H]12 (stereo not given in full) | 0.69

Further lines, results first:

Ratio IC50 | SMILES
0.41 | CC1CN(S(=O)(=O)c2ccccc2C(F)(F)F)C(C)CN1C[C@@]1(O)CC[C@@]2(C)[C@@H](CC[C@@H]3[C@@H]2CC[C@]2(C)/C(=N/O)CC[C@@H]32)C1 (stereo not given in full)
0.53 | CC1CN(S(=O)(=O)c2ccccc2C(F)(F)F)C(C)CN1Cc1cc2c(cc1O)CC[C@@H]1[C@@H]2CC[C@]2(C)C(=O)CC[C@@H]12 (stereo not given in full)
